# Source: PubChem BioAssay AID2524 (Sanford-Burnham Center for Chemical Genomics, 2010)
# Protein sequences, listed by entry. Tags and fused reporters are not part of them. Lines headed by an entry give the natural chain unless they say otherwise; changes in a name come on top.
# UniProt P09923: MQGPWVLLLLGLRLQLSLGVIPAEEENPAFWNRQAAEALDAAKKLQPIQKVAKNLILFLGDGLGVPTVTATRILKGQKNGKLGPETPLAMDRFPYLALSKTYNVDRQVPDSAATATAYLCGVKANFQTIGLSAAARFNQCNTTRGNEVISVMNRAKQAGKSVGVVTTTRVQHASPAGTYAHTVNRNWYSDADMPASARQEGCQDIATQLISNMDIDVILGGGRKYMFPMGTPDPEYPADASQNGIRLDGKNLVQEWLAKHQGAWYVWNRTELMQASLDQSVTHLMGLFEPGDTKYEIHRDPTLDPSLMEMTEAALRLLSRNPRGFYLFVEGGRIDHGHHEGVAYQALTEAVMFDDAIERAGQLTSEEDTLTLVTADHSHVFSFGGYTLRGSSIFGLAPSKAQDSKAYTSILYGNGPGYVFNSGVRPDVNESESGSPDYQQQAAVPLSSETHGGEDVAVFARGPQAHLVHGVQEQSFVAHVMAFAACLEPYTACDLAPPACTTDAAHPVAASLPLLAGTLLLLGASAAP
# The list shows a part of the results, in another mix than the full data. The source made the active and inactive calls.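 How the source made its calls: active means activation factor of the enzyme at least 2-fold when tested at 20 µM; inactive means the rest.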
# Molecular target: Intestinal-type alkaline phosphatase (Homo sapiens) (UniProt P09923)
# Assay: human IAP activators, primary screen, biochemical, luminescence, uHTS (AID 2524)
# Conditions: purified human IAP, CDP-Star luminescence, 30 min; at 10 µM; active compounds read high; 1 = vehicle-only enzyme, 0 = enzyme-free background
row,SMILES,activation factor
1,O=P(Nc1nccs1)(c1ccccc1)c1nc2ccccc2s1 (stereo unspecified),inactive: 1.05
2,O=P(Nc1nccs1)(Oc1ccccc1)Oc1ccccc1,inactive: 1.11
3,CS(=O)(=O)c1cc([N+](=O)[O-])c2no[n+]([O-])c2c1,inactive: 1.09
4,O=C(O)COc1ccc([As](=O)(O)O)cc1[N+](=O)[O-],inactive: 0.86
5,Nc1ccccc1[As](=O)(O)c1ccccc1,inactive: 0.992
6,NC(=O)Nc1ccc([As](=O)(O)O)cc1,inactive: 1.14
7,N#CCCN(C(=O)COC(=O)C(O)(c1ccccc1)c1ccccc1)c1ccc(F)cc1,inactive: 1.07
8,CN(C(=O)Cc1ccccc1)[C@@H]1CC[C@]2(CCCO2)C[C@H]1N1CCCC1,inactive: 0.997
9,CCOP1(=S)c2c(C)nn(CCC#N)c2N=C(c2ccc(F)cc2)N1C (stereo unspecified),inactive: 0.612
10,CN(C)C(=O)c1cc([N+](=O)[O-])cc2c1-c1c(cc([N+](=O)[O-])cc1[N+](=O)[O-])C2=O,inactive: 0.944
11,O=[N+]([O-])c1ccc2c(c1)nnn2O,inactive: 0.918
12,CN(C(=O)Cc1ccc(Cl)c(Cl)c1)[C@H]1CC[C@@]2(CCCO2)C[C@@H]1N1CCCC1,inactive: 0.854
13,O=C(OC1CN2CCC1CC2)c1ccc(Cl)cc1 (stereo unspecified),inactive: 0.928
14,COc1cc(C(=O)NCC2(N3CCOCC3)CCCCC2)cc(Cl)c1OC(C)C,inactive: 1.1
15,O=[As](O)(O)c1cccnc1,inactive: 0.953
16,CS(=O)(=O)c1ccc(Cl)c(NC(=O)COC(=O)C(O)(c2ccccc2)c2ccccc2)c1,inactive: 1.26
17,O=[As](O)(c1cccc(O)c1)c1cccc(O)c1,inactive: 0.878
18,Cc1cccc(OCC(=O)OC2CN3CCC2CC3)c1 (stereo unspecified),inactive: 0.872
19,Cc1ccc(NCCc2c([N+](=O)[O-])cc([N+](=O)[O-])cc2[N+](=O)[O-])cc1,inactive: 0.928
20,CCCOP(=S)(Nc1nc(N)cc(=O)[nH]1)OCCC,inactive: 1.09
21,COc1cc(C2NCCC3(OCCO3)C2(C)C)cc(OC)c1OC (stereo unspecified),inactive: 1.14
22,CCOP(=O)(Nc1cccc2ccccc12)OCC,inactive: 0.927
23,Cc1c2c(nc3ccccc13)SC(C(Cl)Cl)C2 (stereo unspecified),inactive: 0.915
24,O=C(OC1CN2CCC1CC2)C12CC3CC(CC(C3)C1)C2 (stereo unspecified),inactive: 0.921
25,Cc1cc(=O)[nH]c(N[N+](=O)[O-])n1,inactive: 1.06
26,COc1ccc2nc(NP(=O)(c3ccccc3)c3ccccc3)sc2c1,inactive: 1.09

row,SMILES,activation factor
1,COc1cc(I)ccc1[As](=O)(O)O,inactive: 0.885
2,COc1ccc(N/C(=N/P(=O)(N2CCOCC2)N2CCOCC2)N2CCOCC2)cc1,inactive: 0.968
3,C[As](=O)(O)c1cccc(C(=O)O)c1,inactive: 1.02
4,O=[As](O)(c1ccc(O)cc1)c1ccccc1O,inactive: 1.12
5,COc1cc(C(=O)NCC2(N3CCOCC3)CCCCC2)ccc1OCC(C)C,inactive: 1.12
6,Cc1ccc(OP(=O)(Nc2ccc([N+](=O)[O-])cn2)Oc2ccc(C)cc2)cc1,inactive: 1.04
7,Cc1ccc2nc3c(c(C)c2c1)CC(C(Cl)Cl)S3 (stereo unspecified),inactive: 0.895
8,ClCCSc1nnc(-c2cccnc2)o1,inactive: 0.883
9,CC(C)c1ccc(OP(=O)(Nc2ccccn2)Oc2ccccc2F)cc1 (stereo unspecified),inactive: 0.909
10,CCN(CC)C(=S)SC(NC=O)C(Cl)(Cl)Cl (stereo unspecified),inactive: 1.17
11,O=C(OC1CN2CCC1CC2)c1cccc2[nH]cnc12 (stereo unspecified),inactive: 1.27
12,CC(C)NC(=O)NP(=O)(Oc1ccccc1)Oc1ccccc1,inactive: 1.02
13,O=[N+]([O-])c1cc([N+](=O)[O-])c(-c2ccn[nH]2)s1,inactive: 0.89
14,CCOC(=O)Nc1ccc([As](=O)(O)O)c(O)c1,inactive: 1.06
15,CCCCOc1ccc(C(=O)NCC2(N3CCCCC3)CCCCC2)cc1OC,inactive: 1.12
16,Cc1cc(SC(NC(=O)c2ccccc2)C(Cl)(Cl)Cl)nc(C(C)C)n1 (stereo unspecified),inactive: 0.983
17,CCOC(=O)Nc1cccc([As](=O)(O)O)c1,inactive: 1.01
18,Cc1cc(SC(NC=O)C(Cl)(Cl)Cl)ncn1 (stereo unspecified),inactive: 1.22
19,O=P(Nc1ccccn1)(c1cccc2ccccc12)c1cccc2ccccc12,inactive: 0.95
20,COP1(=S)c2c(C)nn(CCC#N)c2N=C(c2ccc(F)cc2)N1C (stereo unspecified),inactive: 0.951
21,O=C(COc1ccccc1)OC1CN2CCC1CC2 (stereo unspecified),inactive: 1.13
22,O=C(Nc1ccncc1[N+](=O)[O-])c1ccc([N+](=O)[O-])cc1[N+](=O)[O-],inactive: 1.12
23,O=C(OC1CN2CCC1CC2)c1cccc([N+](=O)[O-])c1 (stereo unspecified),inactive: 0.953
24,CCOC(=O)c1ccc(NC(=O)C(C)(CCl)SC)cc1 (stereo unspecified),inactive: 0.999
25,CCC(C)N(CC(C)C)C(=S)SC(NC(C)=O)C(Cl)(Cl)Cl (stereo unspecified),inactive: 1.09
